Assays:
[1] = test system: HER2 mutant lung cancers
Excerpt: Patients with stage 4 or recurrent HER2 mutant lung cancers were enrolled in the cohort, as illustrated in the basket trial scheme in FIG. 1. Other cohorts of this basket trial included HER2 amplified lung, bladder and other solid tumors, as illustrated by FIG. 1. HER2 mutations were identified through next generation sequencing (NGS) including exon 20 insYVMA, insGSP, insTGT, single base pair substitutions L755A, L755S, V777L, V659E, S310F or other likely activating mutations. Other inclusion criteria included age (≥18 years old), Karnofsky performance status (≥70%), measurable disease by Response Evaluation Criteria in Solid Tumors (RECIST) v1.1, and adequate left ventricular, bone marrow, and hepatic function.
Physical examination and safety assessments were performed every 3 weeks. Tumor assessments using contrast enhanced computed tomography of the chest, abdomen, and pelvis were performed at baseline, week 6, week 12, and every 12 weeks thereafter until disease progression was observed. Brain imaging was not routinely performed unless clinically indicated. Left ventricular ejection fraction measurements by echocardiography or multi-gated acquisition scan were performed at baseline then every 3 months. […] Secondary objectives included assessment of progression-free survival (PFS) and toxicity according to the National Cancer Institute Common Terminology Criteria for Adverse Events version 4.1 (NCI CTCAE v4.1). The molecular associations between HER2 mutations, HER2 amplification and HER2 protein expression were examined using different molecular diagnostic assays whenever archival tissue was available. NGS assessed for HER2 mutation and amplification, fluorescence in situ hybridization (FISH) assessed for HER2 amplification, and HER2 protein overexpression was assessed by immunohistochemistry (IHC) and quantitative mass spectrometry. FISH was performed using FDA approved probe sets (PathVysion, Abbott Molecular, Chicago, Ill. and HER2 IQFISH pharmDx, Agilent, Santa Clara, Calif.) and positive HER2 amplification was defined as HER2/CEP17 ratio ≥2.0. HER2 protein by IHC was assessed using the 4B5 Ventana antibody (Ventana Medical Systems, Oro Valley Ariz.). Quantitative HER2 protein by selected reaction monitoring mass spectrometry on fixed-formalin paraffin-embedded tissue was performed using methods previously validated in breast cancers, with ≥740 amol/ug as the cutoff for high HER2 expression (see Nuciforo P., et al., Mol. Oncol., 10:138-147 (2016)).
Target accrual was a minimum of 7 patients (stage 1) and maximum of 18 patients (stage 1 and 2) in each cohort. The primary endpoint was best confirmed overall response rate (ORR) per RECIST v1.1. The Simon's optimal two-stage design was employed with a multiple testing adjusted type I error rate for each cohort. For a targeted agent where higher response rates were expected, a true ORR of ≤10% was considered unacceptable (null hypothesis), whereas a true ORR of ≥40% merited further study (alternative hypothesis). In the first stage, 7 patients were accrued; if there were no responses observed at interim analysis of the 7 patients in a particular cohort, the cohort was closed. Otherwise, 11 additional patients were accrued for a total of 18 patients.

[2] = test system: HER2 amplified breast cancers; conditions: FDA label; cited from earlier work

ado-trastuzumab emtansine
infusion reactions (grade 1 or 2) ([1]; 5 of 18 patients, mild rigors, chills, pruritis, wheezing): 28%
deaths or grade 4 toxicities on study ([1]; NCI CTCAE v4.1): no deaths or grade 4 toxicities
dose reductions or discontinuations as a result of treatment-related adverse effects ([1]; in vivo): no dose reductions or discontinuations
tolerability ([1]; in vivo): well tolerated
severity of treatment-related adverse events ([1]; infusion reactions, thrombocytopenia, elevations of hepatic transaminases): mainly grade 1 or 2 events
response among patients with positive FLIM-FRET for HER2-HER3 heterodimer ([1]; three HER2-mutant lung cancer patients tested): one of them had a partial response
rate of grade 1 or 2 infusion reactions [2]: 1%
